Test results: paper PMC5291514, “Structure activity relationship and modeling studies of inhibitors of lysine specific demethylase 1” (PLoS ONE, 2017)

What was measured:
[1] = molecular target: recombinant human LSD1 (Homo sapiens, UniProt O60341); assay: LSD1 enzyme inhibition, HRP-coupled Amplex red assay; assay type: biochemical
[2] = molecular target: MAO-A and -B; assay: Inhibition of MAO-A/-B, MAO-Glo assay kit, one range given over both enzymes; conditions: read-out: IC50 against MAO-A and -B; range over both enzymes and the named compounds; tested form: 2HCl

Row | Compound | fold less active against LSD1 than the corresponding compounds 1–3 ([1]; 7 vs 1, 8 vs 2, 9 vs 3, tested form: 2HCl) [fold] | IC50 [2] [µM] | LSD1 inhibitory activity in words [1] | IC50 ([1]; read-out: LSD1 IC50, Table 1, 30 nM LSD1, 30 min preincubation, 10 μM H3K4Me2 peptide) [µM]
1 | N[C@@H]1C[C@H]1c1ccc(-c2ccc(F)nc2)cc1 (relative stereo) | 69 | 0.17 to 3.1 | – | –
2 | COc1cc(C=N[C@@H]2C[C@H]2c2ccc(Br)cc2)cc(OC)c1OC (relative stereo) | – | – | almost loses the inhibitory activity | 94
